The values that follow come from US9266930.

This test concerns the target HLA-A*0201 (human).

“[…] (Plasmodium falciparum LSA, position 13, 9 amino acids) (peptide; other documents disagree on this pair)”: the binding affinity ratio (IC50 of standard peptide / IC50 of test peptide) is 0.0006.
